Measured values as given in US20240018161A1, “MODULATORS OF CYSTIC FIBROSIS TRANSMEMBRANE CONDUCTANCE REGULATOR” (VERTEX PHARMACEUTICALS INCORPORATED, priority 2020, published 2024).

Protein sequences, listed by entry. Tags and fused reporters are not part of them. Chains listed by the source or under a name are the forms on record and can include a tag or linker.
UniProt P13569, with tags, fused parts or gaps DEL508-508: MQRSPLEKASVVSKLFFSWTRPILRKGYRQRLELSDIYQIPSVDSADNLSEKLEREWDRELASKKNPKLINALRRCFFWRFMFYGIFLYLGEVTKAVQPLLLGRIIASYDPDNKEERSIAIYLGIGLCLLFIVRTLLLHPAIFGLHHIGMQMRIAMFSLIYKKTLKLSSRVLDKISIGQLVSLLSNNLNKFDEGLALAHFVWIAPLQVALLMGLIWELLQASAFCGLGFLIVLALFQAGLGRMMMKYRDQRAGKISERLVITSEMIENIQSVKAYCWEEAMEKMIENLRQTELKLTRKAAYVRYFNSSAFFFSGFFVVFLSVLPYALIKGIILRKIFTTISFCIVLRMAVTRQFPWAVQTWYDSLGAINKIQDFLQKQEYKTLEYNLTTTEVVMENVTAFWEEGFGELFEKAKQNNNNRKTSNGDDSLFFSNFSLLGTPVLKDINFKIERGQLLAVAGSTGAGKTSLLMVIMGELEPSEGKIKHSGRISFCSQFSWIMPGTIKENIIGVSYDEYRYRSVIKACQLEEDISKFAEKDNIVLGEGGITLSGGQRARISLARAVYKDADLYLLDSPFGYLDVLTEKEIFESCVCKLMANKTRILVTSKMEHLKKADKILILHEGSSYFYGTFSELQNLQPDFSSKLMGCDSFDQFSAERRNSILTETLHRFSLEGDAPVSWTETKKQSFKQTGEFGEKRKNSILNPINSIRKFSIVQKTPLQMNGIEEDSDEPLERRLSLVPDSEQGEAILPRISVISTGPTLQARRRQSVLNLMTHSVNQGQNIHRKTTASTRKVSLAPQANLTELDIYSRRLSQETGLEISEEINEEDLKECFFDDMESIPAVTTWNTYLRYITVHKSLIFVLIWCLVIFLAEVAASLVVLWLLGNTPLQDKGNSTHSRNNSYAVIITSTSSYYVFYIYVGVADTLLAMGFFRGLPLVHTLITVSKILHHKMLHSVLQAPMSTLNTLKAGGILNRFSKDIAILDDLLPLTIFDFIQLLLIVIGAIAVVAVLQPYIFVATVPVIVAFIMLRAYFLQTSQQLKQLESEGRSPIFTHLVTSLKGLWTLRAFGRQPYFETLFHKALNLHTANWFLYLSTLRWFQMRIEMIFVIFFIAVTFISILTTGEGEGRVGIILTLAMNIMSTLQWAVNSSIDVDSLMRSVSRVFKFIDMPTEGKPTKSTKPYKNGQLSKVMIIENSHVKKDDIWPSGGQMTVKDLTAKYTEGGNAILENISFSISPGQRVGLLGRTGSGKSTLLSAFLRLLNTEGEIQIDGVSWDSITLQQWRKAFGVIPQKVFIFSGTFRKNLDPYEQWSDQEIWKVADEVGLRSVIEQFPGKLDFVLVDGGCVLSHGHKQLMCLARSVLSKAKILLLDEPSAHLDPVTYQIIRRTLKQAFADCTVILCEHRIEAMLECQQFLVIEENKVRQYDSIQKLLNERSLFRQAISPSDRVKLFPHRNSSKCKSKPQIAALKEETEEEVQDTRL

Experiments:
[1] = biological target: T1, CFTR-mediated chloride transport in human intestinal epithelial enteroid cells (Homo sapiens, UniProt P13569); assay: Membrane potential dye, Enteroid Assay A; assay type: cell-based; conditions: for EC50: read-out: Ent. A EC50
Experimental: (§1) Base medium (ADF+++) consisted of Advanced DMEM/Ham's F12, 2 mM Glutamax, 10 mM HEPES, […] penicillin/streptomycin.
(§2) Bath 1 Buffer consisted of 1 mM MgCl2, 160 mM NaCl, 4.5 mM KCl, 10 mM HEPES, 10 mM Glucose, 2 mM CaCl2.
(§3) Chloride Free Buffer consisted of 1 mM Magnesium Gluconate, 2 mM Calcium Gluconate, 4.5 mM Potassium Gluconate, 160 mM Sodium Gluconate, 10 mM HEPES, 10 mM Glucose.
(§4) Bath1 Dye Solution consisted of Bath 1 Buffer, 0.04% Pluronic F127, 20 μM Methyl Oxonol, 30 μM CaCCinh-A01, 30 μM Chicago Sky Blue.
(§5) Chloride Free Dye Solution consisted of Chloride Free Buffer, 0.04% Pluronic F127, 20 μM Methyl Oxonol, 30 μM CaCCinh-A01, 30 μM Chicago Sky Blue.
(§6) 3. Enteroid Cell Harvesting and Seeding
(§7) Cells were recovered in cell recovery solution, collected by centrifugation at 650 rpm for 5 min at 4° C., resuspended in TryPLE and incubated for 5 min at 37° C. Cells were then collected by centrifugation at 650 rpm for 5 min at 4° C. and resuspended in IEMM containing 10 μM ROCK inhibitor (RI).
4. Membrane Potential Dye, Enteroid Assay A
Briefly, cells were washed 5 times in Bath 1 Buffer. Bath 1 Dye Solution was added, and the cells were incubated for 25 min at room temperature. Following dye incubation, cells were washed 3 times in Chloride Free Dye Solution. Chloride transport was initiated by addition of Chloride Free Dye Stimulation Solution and the fluorescence signal was read for 15 min. […] Chloride transport was then expressed as a percentage of the chloride transport following treatment with 3 μM N-[(6-amino-2-pyridyl)sulfonyl]-6-(3-fluoro-5-isobutoxy-phenyl)-2-[(4S)-2,2,4-trimethylpyrrolidin-1-yl]pyridine-3-carboxamide, 3 μM (R)-1-(2,2-difluorobenzo[d][1,3]dioxol-5-yl)-N-(1-(2,3-dihydroxypropyl)-6-fluoro-2-(1-hydroxy-2-methylpropan-2-yl)-1H-indol-5-yl)cyclopropanecarboxamide and 300 nM acute N-[2,4-bis(1,1-dimethylethyl)-5-hydroxyphenyl]-1,4-dihydro-4-oxoquinoline-3-carboxamide triple combination control (% Activity).

[2] = biological target: T1, CFTR-mediated chloride transport in human intestinal epithelial enteroid cells; assay: Membrane potential dye, Enteroid Assay B; assay type: cell-based
Experimental: as §1, §2, §3, §4, §5, §6, §7
5. Membrane Potential Dye, Enteroid Assay B
Briefly, cells were washed 5 times in Bath 1 Buffer. Bath 1 Dye Solution was added and the cells were incubated for 25 min at room temperature. Following dye incubation, cells were washed 3 times in Chloride Free Dye Solution. Chloride transport was initiated by addition of Chloride Free Dye Stimulation Solution and the fluorescence signal was read for 15 min.

EC50 [1]	Ent. B Max Activity (%) [2]	EC50 ([2]; read-out: Ent. B EC50)	SMILES	Ent. A Max Activity (%) [1]
< 1000 nM			Cc1cccc(C)c1-c1cc2nc(n1)NS(=O)(=O)c1cccc(c1)C(=O)N1CCN(C3CCC(F)(F)CC3)C[C@H](O2)[C@H]1CC(C)C [Compound 85, (16S,21R)-18-(4,4-Difluorocyclohexyl)-12-(2,6-dimethylphenyl)-21-(2-methylpropyl)-15-oxa-8λ^6-thia-1,9,11,18,22-pentaazatetracyclo[14.4.1.13,7.110,14]tricosa-3(23),4,6,10(22),11,13-hexaene-2,8,8-trione]	+++ (key: +++ is >600%; ++ is 30-60%; + is <30%)
< 1000 nM	+++ (+++ is >600%)	< 1000 nM	Cc1cccc(C)c1-c1cc2nc(n1)NS(=O)(=O)c1cccc(c1)C(=O)N1Cc3cc(C(F)(F)F)ccc3[C@H](O2)[C@H]1CC(C)C [Compound 186, (16S,24R)-12-(2,6-Dimethylphenyl)-24-(2-methylpropyl)-20-(trifluoromethyl)-15-oxa-8λ^6-thia-1,9,11,25-tetraazapentacyclo[14.7.1.13,7.110,14.017,22]hexacosa-3,5,7(26),10,12,14(25),17,19,21-nonaene-2,8,8-trione]	+++ (key: +++ is >600%; ++ is 30-60%; + is <30%)
< 1000 nM			Cc1cccc(C)c1-c1cc2nc(n1)NS(=O)(=O)c1cccc(c1)C(=O)N1Cc3cc(C(F)(F)F)ccc3[C@@H](O2)[C@H]1CC(C)C [Compound 187, (16R,24R)-12-(2,6-dimethylphenyl)-24-(2-methylpropyl)-20-(trifluoromethyl)-15-oxa-8λ^6-thia-1,9,11,25-tetraazapentacyclo[14.7.1.13,7.110,14.017,22]hexacosa-3,5,7(26),10,12,14(25),17,19,21-nonaene-2,8,8-trione]	+++ (key: +++ is >600%; ++ is 30-60%; + is <30%)
